For the assay, the target named is T1, SARS-CoV-2 PL^Pro (Severe acute respiratory syndrome coronavirus 2, UniProt P0DTD1).
T1 construct: SARS-CoV-2 PL^Pro catalytic domain (746-1060); made in house
Kind of assay: biochemical.

`Cc1ccc(N2CCN(C)CC2)cc1C(=O)NC1(c2ccc3c4c(cccc24)C(=O)N3C)CC1` [Compound P1, 2-Methyl-N-(1-(1-methyl-2-oxo-1,2-dihydrobenzo[cd]indol-6-yl)cyclopropyl)-5-(4-methylpiperazin-1-yl)benzamide] registered a 50% inhibitory concentration (IC50) of 40 to 100 nM.

Source of the values: EP4745124A1, “NAPHTHALIMIDE-BASED CORONAVIRUS PAPAIN-LIKE PROTEASE INHIBITOR” (Guangzhou National Laboratory, priority 2023, dated 2025).
